According to patent publication US9611297B1, “Compositions and methods for the treatment of cast nephropathy and related conditions” (Thrasos Therapeutics Inc., priority 2016, dated 2017):

Experiments:
[1] = Urine recovery and clearance after 2 hour IV infusion in rats; type: in vivo, rat
Protocol: (§1) The plasma pharmacokinetics of SEQ ID No. 27 was evaluated following intravenous (IV) bolus injection (FIG. 1) and 2 hour IV infusion (FIG. 2) in rats. Similarly, FIG. 3 plasma pharmacokinetics of SEQ ID No. 27 following intraperitoneal injection of SEQ ID No. 27 when compared with SEQ ID No. 4 in rat.

[2] = Plasma pharmacokinetics in rat (IV bolus, IV infusion, intraperitoneal injection); type: in vivo; conditions: broad range of doses
Protocol: as §1

[3] = molecular target: T1, uromodulin binding to light chain BEN (subtype lambda) (Homo sapiens, UniProt P07911); assay: ELISA: inhibition of biotin-uromodulin binding to plate-coated light chain clone BEN
T1 construct: Uromodulin was precipitated from fresh urine from healthy donors using 0.58M NaCl; from tissue; host or cells: urine of healthy human donors (uromodulin); CHO cells (light chain BEN)
Protocol: (§2) Uromodulin was precipitated from fresh urine from healthy donors using 0.58M NaCl. The precipitate was then washed with 0.58M NaCl and resuspended in water. […] Samples were then stored at −20° C. without lyophilization.
(§3) Enzyme-linked immunosorbant assays (ELISA) were performed on the disclosed peptides. Plates were coated with the following light chain clones overnight at 4° C.: 0.05 uM BER (subtype lambda, isolated from SP2/0 cells), 0.2 uM ROC (subtype kappa, isolated from CHO cells), and 0.3 uM BEN (subtype lambda, isolated from CHO cells). The plates were washed and treated with bovine serum albumin (BSA) overnight at 4° C. For peptide plates, 10 nM biotin-uromodulin was mixed with peptide overnight at 4° C.

[4] = molecular target: T2, uromodulin binding to light chain BER (subtype lambda) (Homo sapiens, UniProt P07911); assay: ELISA: inhibition of biotin-uromodulin binding to plate-coated light chain clone BER
T2 construct: Uromodulin was precipitated from fresh urine from healthy donors using 0.58M NaCl; from tissue; host or cells: urine of healthy human donors (uromodulin); SP2/0 cells (light chain BER)
Protocol: as §2, §3

[5] = system: kidney brush border enzyme; assay: Stability against kidney brush border enzyme (KBB); type: in vitro ADME
From the text: (§4) Binding inhibition, stability, and solubility data was obtained for peptides of the Formula SEQ ID No. 1. MLC90 represents the lowest IC50 at which uromodulin binding to 90% of the light chains tested was inhibited. KBB is kidney brush border enzyme.

[6] = Solubility in saline; type: physicochemical; conditions: read-out: Solubility (saline, mg/mL)
From the text: as §4

[7] = Stability in urine; type: in vitro ADME
From the text: as §4

[8] = Stability in plasma; type: in vitro ADME
From the text: as §4

[9] = molecular target: T3, uromodulin binding to light chain ROC (subtype kappa) (Homo sapiens, UniProt P07911); assay: ELISA: inhibition of biotin-uromodulin binding to plate-coated light chain clone ROC
T3 construct: Uromodulin was precipitated from fresh urine from healthy donors using 0.58M NaCl; from tissue; host or cells: urine of healthy human donors (uromodulin); CHO cells (light chain ROC)
Protocol: Uromodulin was precipitated from fresh urine from healthy donors using 0.58M NaCl. The precipitate was then washed with 0.58M NaCl and resuspended in water. The uromodulin was dialyzed extensively against water to remove salt and other contaminants (MWCo=50 KD). Samples were then stored at −20° C. without lyophilization. Good overall purity was seen by gel electrophoresis.
as §3

[10] = molecular target: T4, uromodulin binding to 90% of the light chains tested (Homo sapiens, UniProt P07911); assay: Binding inhibition MLC90 (ex vivo conditions)
T4 construct: Uromodulin was precipitated from fresh urine from healthy donors using 0.58M NaCl; from tissue; host or cells: urine of healthy human donors (inferred: the only uromodulin preparation described)
From the text: as §4

Row | SMILES | IC50 [3] [µM] | IC50 [4] [µM] | Stability KBB50% [5] [min] | solubility [6] [mg/mL] | Stability Urine80% [7] [h] | Stability Plasma50% [8] [min] | IC50 [9] [µM] | other results
1 | CC[C@H](C)[C@@H]1NC(=O)[C@H](CO)NC(=O)[C@@H](Cc2ccc(O)cc2)NC(=O)[C@H](CO)NC(=O)[C@H](CCC(N)=O)NC(=O)[C@H](CCC(N)=O)NC(=O)[C@@H](NC(=O)CCCCCN)CSSC[C@@H](C(=O)N[C@H](CCCCN)C(=O)N[C@H](CCCCN)C(N)=O)NC(=O)[C@H]([C@@H](C)O)NC(=O)[C@H](Cc2ccc(O)cc2)NC(=O)[C@@H]2CCCN2C1=O [SEQ ID No. 27, AhaCQQSY*SIPYTCK*K*] | – | – | – | – | – | – | – | clearance rate [1]: essentially equal to the glomerular filtration rate; percentage of intact peptide recovered in the urine ([1]; infusion of 10 mg/kg for 2 hours, mean±SD): 100%±22%; dose-exposure proportionality [2]: very good dose-exposure proportionally over a broad range of doses
2 | CC(C)[C@@H]1NC(=O)CNC(=O)[C@H](C(C)C)NC(=O)[C@H](CO)NC(=O)[C@H](CC(N)=O)NC(=O)[C@H](CC(=O)O)NC(=O)[C@H](Cc2c[nH]c3ccccc23)NC(=O)[C@H](C(C)C)NC(=O)[C@H](CCC(N)=O)NC(=O)[C@@H](NC(=O)CCCCCN)CSSC[C@@H](C(=O)N[C@@H](CCCCN)C(=O)N[C@@H](CCCCN)C(N)=O)NC1=O [compound 5] | > 120 | ≥ 500 | – | – | – | – | – | –
3 | CC[C@H](C)[C@@H]1NC(=O)[C@H](CO)NC(=O)[C@H](Cc2ccc(O)cc2)NC(=O)[C@H](CO)NC(=O)[C@H](CCC(N)=O)NC(=O)[C@H](CCC(N)=O)NC(=O)[C@@H](NC(=O)CCCCCN)CSSC[C@@H](C(=O)N[C@@H](CCCCN)C(=O)N[C@@H](CCCCN)C(N)=O)NC(=O)[C@H]([C@@H](C)O)NC(=O)[C@H](Cc2c[nH]c3ccccc23)NC(=O)[C@@H]2CCCN2C1=O [compound 11] | – | – | 5 | ≥ 100 | >2 | <5 | – | –
4 | CC[C@H](C)[C@@H]1NC(=O)[C@@H]2CCCN2C(=O)[C@H](CC(C)C)NC(=O)[C@H](Cc2ccc(O)cc2)NC(=O)[C@H](CO)NC(=O)[C@H](Cc2ccc(O)cc2)NC(=O)[C@H](CCC(N)=O)NC(=O)[C@H](CCC(N)=O)NC(=O)[C@@H](NC(=O)CCCCCN)CSSC[C@@H](C(=O)N[C@H](CCCCN)C(=O)N[C@H](CCCCN)C(N)=O)NC(=O)[C@H]([C@@H](C)O)NC1=O [compound 14] | 2.8 | 17.3 | – | – | – | – | 20.9 | –
5 | CC(C)C[C@@H]1NC(=O)[C@H](C)NC(=O)[C@H](CO)NC(=O)[C@H](CO)NC(=O)CNC(=O)[C@H](Cc2ccc(O)cc2)NC(=O)[C@H](Cc2c[nH]cn2)NC(=O)[C@H](CCC(N)=O)NC(=O)[C@@H](NC(=O)CCCCCN)CSSC[C@@H](C(=O)N[C@@H](CCCCN)C(=O)N[C@@H](CCCCN)C(N)=O)NC(=O)[C@H]([C@@H](C)O)NC1=O [compound 19] | 3.3 | – | – | – | – | – | – | –
6 | CC[C@H](C)[C@@H]1NC(=O)[C@H](CO)NC(=O)[C@@H](Cc2ccc(O)cc2)NC(=O)[C@H](CO)NC(=O)[C@H](CCC(N)=O)NC(=O)[C@H](CCC(N)=O)NC(=O)[C@@H](NC(=O)CCCCCN)CSSC[C@@H](C(=O)N[C@H](CCCCN)C(=O)N[C@H](CCCCN)C(N)=O)NC(=O)[C@H]([C@@H](C)O)NC(=O)[C@H](Cc2ccc(O)cc2)NC(=O)[C@@H]2CCCN2C1=O [compound 27] | 2.8 | 27.1 | >60 | ≥ 100 | >2 | >120 | 26.5 | IC50 [10]: 27.1 µM
